Experimental findings from article PMC7872319, “Probing Biomolecular Interactions by a Pattern-Forming Peptide–Conjugate Sensor” (Bioconjugate Chemistry, 2020) are described below.

The subject of the assay is MinD. Particulars: 1 μM MinD, 500 nM MinE(13-31)-biotin, 90 nM divalent streptavidin.

Regarding `O=C(O)CCCC[C@@H]1SC[C@@H]2NC(=O)N[C@@H]21` [free biotin, biotin], the “free biotin concentration altering pattern phenotype” value is under 10 nM.
